Values quoted from earlier work as cited in patent US20050124645A1, “Methods and compositions for increasing CD4lymphocyte immune responsiveness” (priority 1998, published 2005).

Details: DePaoli et al. 1997; cited from earlier work

Substance: IL-2: cytokine which binds to receptors on T cells having γc; recombinant, R&D Systems
- side effects: systemic toxic side effects
